Data published in BindingDB's records for doi:10.7270/Q2J96B77 (D3R/Abbott, 2020).

By UniProt entry, the sequences of proteins in these tests, tags left out.
UniProt P25774, whole entry: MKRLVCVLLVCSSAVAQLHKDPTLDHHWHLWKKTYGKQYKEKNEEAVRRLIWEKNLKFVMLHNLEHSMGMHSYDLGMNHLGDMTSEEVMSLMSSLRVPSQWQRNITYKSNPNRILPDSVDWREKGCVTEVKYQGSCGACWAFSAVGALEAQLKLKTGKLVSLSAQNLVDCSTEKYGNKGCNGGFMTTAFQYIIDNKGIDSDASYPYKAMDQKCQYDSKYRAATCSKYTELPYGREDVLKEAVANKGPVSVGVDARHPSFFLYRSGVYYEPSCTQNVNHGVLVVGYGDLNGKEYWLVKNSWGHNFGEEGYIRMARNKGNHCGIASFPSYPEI

Target: Cathepsin S (Homo sapiens, UniProt P25774)
Experiment: D3R2020

SMILES | IC50 [µM]
CS(=O)(=O)N1CCc2c(c(-c3ccc(C(F)(F)F)cc3)nn2C[C@H](O)CN2CCC(c3c[nH]c4cc[n+]([O-])cc34)CC2)C1 [CatS_1] | 0.2
CS(=O)(=O)N1CCc2c(c(-c3ccc(C(F)(F)F)cc3)nn2C[C@@H](O)CN2CCC(c3c[nH]c4cc[n+]([O-])cc34)CC2)C1 [CatS_2] | 0.2
